The target of the assay is Disulfide dimer of NCS-1 (dNCS-1), prepared from purified recombinant NCS-1 (UniProt P62166 1-190, N-terminal myristoylation (~98%); disulfide bond between C38 of the two chains). In words: SPR; GRK1^N-C immobilised by amine coupling on a ProteOn GLH chip (up to 12,000 RU); analyte NCS-1 or dNCS-1 0.5 to 20 μM; 25 °C; 10 mM HEPES pH 7.4, 150 mM NaCl, 1 mM CaCl2, 0.05% Tween 20; global fits by the heterogeneous ligand model (both) or the bivalent analyte model (dNCS-1). The following applies: both partners purified. On the technique in general: In SPR one partner is held on a chip, and binding of the other changes the refractive index at the surface.

By UniProt entry, the sequences of proteins in these tests, tags left out. Where a name states a change or a piece, a line headed by the entry shows the natural chain unless it says otherwise.
UniProt P62166: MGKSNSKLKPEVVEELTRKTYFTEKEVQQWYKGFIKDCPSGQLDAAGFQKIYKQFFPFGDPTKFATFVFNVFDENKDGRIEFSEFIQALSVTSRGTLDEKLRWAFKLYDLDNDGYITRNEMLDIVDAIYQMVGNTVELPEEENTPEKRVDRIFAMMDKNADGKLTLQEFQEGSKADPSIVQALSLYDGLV

B1: Chimera GRK1^N-C, fusion protein containing regulatory domains of GRK1 (GRK1 1-191,512-557) (domain or fragment)
chain: MDFGSLETVVANSAFIAARGSFDASSGPASRDRKYLARLKLPPLSKCEALRESLDLGFEGMCLEQPIGKRLFQQFLRTHEQHGPALQLWKDIEDYDTADDALRPQKAQALRAAYLEPQAQLFCSFLDAETVARARAGAGDGLFQPLLRAVLAHLGQAPFQEFLDSLYFLRFLQWKWLEAQPMGEDWFLDFRPIPWQEEMIETGVFGDLNVWRPDGQMPDDMKGVSGQEAAPSSKSGM
notes: G-protein coupled receptor kinase 1 (GRK1, rhodopsin kinase), residues 512-557; source: E. coli (plasmid pET28a), purified from bacterial lysate under non-denaturating conditions
For the molecule B1, the Kd came to 30 nM; the koff (usually a measure of how fast the partners let go of each other) was determined as 0.00023 s⁻¹; the kon (in general, the second-order rate constant of association) was found to be 9780 ± 5700 M⁻¹ s⁻¹.

The record behind these values is paper PMC8623652, “Disulfide Dimerization of Neuronal Calcium Sensor-1: Implications for Zinc and Redox Signaling” (International Journal of Molecular Sciences, 2021).
